This experiment relates to intracellular proteome of ENR+CD and ENR organoids. Put plainly: LC-MS/MS TMT proteomics of ENR+CD versus ENR organoids. The experiment is classed as cell-based, C57BL/6 mice. An excerpt: Because PCs are highly secretory, protein-rich cells, Applicants sought to assess the total intracellular proteome between conditions through liquid chromatography mass spectrometry (LC-MS/MS)-based proteomics. Applicants quantified relative protein abundance across eight samples using isobaric mass tag labeling from four ENR and four ENR+CD samples (M1-1 through M2-2, first digit denotes biological donor, second digit denotes technical replicate) (FIG. 3A). Samples were processed and analyzed in a single 10-plex by LC-MS/MS (FIG. 9A).
To affirm the reproducibility of the associated proteins in the ENR+CD-enriched proteome, Applicants performed relative quantification within differentiation sets.
Mass spectrometry proteomics sample preparation, sequencing, and quantification. Organoid cell pellets were isolated from Matrigel with mechanical dissociation and washed (cold PBS 5X) to remove residual extracellular protein. Proteins were extracted from cell pellets with 8 M urea (Sigma), reduced with 5 mM DTT (Thermo Fisher Pierce) for 45 minutes, alkylated with 10 mM IAA (Sigma) for 45 minutes in the dark, and double digested with both Lysyl Endopeptidase “LysC” (Wako) and trypsin (Promega) overnight at RT. A small aliquot of cellular lysate was removed from each sample for protein quantification via the Pierce™ BCA Protein Assay Kit (Pierce). After proteolytic digestion, the samples were quenched using formic acid to a final concentration of 1.0% and subsequently desalted on 10 mg OASIS HLB solid phase columns (Waters).
The peptides were labeled with TMT-10 isobaric mass tag reagent according to manufacturer's instructions (ThermoFisher Scientific). The peptides were labeled at a 1:8 ratio of peptide to TMT reagent, followed by 1-hour incubation at RT with bench top shaking at 850 rpm. After incubation, a […] of labeled tryptic peptide was removed from each labeled condition, desalted with C18 stage tips, and analyzed via LC-MS/MS using a Thermo Fisher Q Exactive Plus Hybrid Mass Spectrometer (QE-Plus) coupled to a Thermo Fisher EASY-nLC 1000 liquid chromatograph to ensure isobaric label incorporation >95%. An additional 1.0 μg of labeled tryptic peptide was removed from each channel, mixed together, desalted on a C18 stage tip, and analyzed via LC-MS to ensure equal relative protein loads. During these quality control steps, the labeled peptides were stored, unquenched at −80° C.

We go through one substance from patent publication US11994512B2, “Single-cell genomic methods to generate ex vivo cell systems that recapitulate in vivo biology with improved fidelity” (Massachusetts Institute of Technology, priority 2018, dated 2024).

Regarding P63166, the “Average logFC” value (protein abundance, ENR+CD versus ENR organoids, aggregate of the four sample pairs) is −1.394. In addition, the “M1-1 Log2 Median Normalized” value (protein abundance, ENR+CD versus ENR organoids, replicate M1-1, log2 ratio) was −1.207. Further, the “M1-2 Log2 Median Normalized” value (protein abundance, ENR+CD versus ENR organoids, replicate M1-2, log2 ratio) is on record as −1.094. Also, the “M2-1 Log2 Median Normalized” value (protein abundance, ENR+CD versus ENR organoids, replicate M2-1, log2 ratio) is on record as −1.7425. The “M2-2 Log2 Median Normalized” value (protein abundance, ENR+CD versus ENR organoids, replicate M2-2, log2 ratio) is −1.532. The change result (up = enriched in ENR+CD, down = enriched in ENR, FDR<0.05 and log fold change cut-off) is on record as “down”.
